Reference: patent US12527821B2, “Compositions and methods related to tumor cell killers and vaccines” (THE BRIGHAM AND WOMEN'S HOSPITAL, INC., priority 2018, dated 2026)

Test system: intracranial rGBMi2-TK-GF1 tumor
Details: compared to saline-treated control

Q: Which “elimination of therapeutic cells in vivo (BLI)” value does the source give for `Nc1nc2c(ncn2COC(CO)CO)c(=O)[nH]1` [GCV, Ganciclovir] here?
A: eliminated
